Experimental data published in ChEMBL document CHEMBL1134874, “Identification of a novel partial inhibitor of dopamine transporter among 4-substituted 2-phenylquinazolines” (Bioorg Med Chem Lett, 2002).

The chains behind the UniProt entries cited, without tags or fusion partners.
UniProt P31652, whole entry: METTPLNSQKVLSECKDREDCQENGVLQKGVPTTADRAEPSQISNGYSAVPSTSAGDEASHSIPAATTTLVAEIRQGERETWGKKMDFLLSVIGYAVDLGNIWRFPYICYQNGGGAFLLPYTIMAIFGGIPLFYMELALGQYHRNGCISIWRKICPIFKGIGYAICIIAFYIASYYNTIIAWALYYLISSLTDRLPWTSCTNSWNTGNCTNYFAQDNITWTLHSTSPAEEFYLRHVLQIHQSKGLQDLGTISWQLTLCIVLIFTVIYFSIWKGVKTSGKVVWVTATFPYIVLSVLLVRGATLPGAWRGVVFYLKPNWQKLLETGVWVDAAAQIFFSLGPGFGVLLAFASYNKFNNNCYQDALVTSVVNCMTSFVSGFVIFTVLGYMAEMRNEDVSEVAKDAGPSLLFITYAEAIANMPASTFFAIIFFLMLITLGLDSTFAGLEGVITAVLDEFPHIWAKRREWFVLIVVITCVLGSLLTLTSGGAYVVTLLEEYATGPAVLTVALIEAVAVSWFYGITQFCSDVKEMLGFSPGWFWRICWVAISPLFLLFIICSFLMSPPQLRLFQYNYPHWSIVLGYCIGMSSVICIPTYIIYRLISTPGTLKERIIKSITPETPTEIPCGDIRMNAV

Biological target: Sodium-dependent serotonin transporter (Rattus norvegicus, UniProt P31652)
Assay: Inhibition of [125I]RTI-55 binding to Serotonin transporter of rat caudate membranes
Assay type: cell membranes, Membrane

Structure (SMILES): COC(=O)[C@H]1[C@@H](OC(=O)c2ccccc2)C[C@@H]2CC[C@H]1N2C [COCAINE]
- Ki: 130 nM
